Values joined by “and” are separate entries in the source; they are usually repeats but may differ in a detail not shown here. Equal values may be shown once.

Chains of the proteins cited; added tags and fusions are not shown. Lines headed by an entry give the natural chain unless they say otherwise; changes in a name come on top.
UniProt P31391: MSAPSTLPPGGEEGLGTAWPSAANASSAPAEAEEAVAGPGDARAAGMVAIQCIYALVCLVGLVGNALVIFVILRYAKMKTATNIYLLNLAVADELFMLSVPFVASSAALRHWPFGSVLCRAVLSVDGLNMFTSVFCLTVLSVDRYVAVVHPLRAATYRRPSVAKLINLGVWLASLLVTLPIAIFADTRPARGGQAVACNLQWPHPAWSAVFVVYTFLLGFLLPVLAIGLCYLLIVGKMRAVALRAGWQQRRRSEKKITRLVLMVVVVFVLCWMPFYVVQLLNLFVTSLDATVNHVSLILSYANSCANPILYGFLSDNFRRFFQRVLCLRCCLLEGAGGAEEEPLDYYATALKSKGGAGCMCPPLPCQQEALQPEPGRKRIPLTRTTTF

Assay [1] concerns the target human somatostatin receptor SSTR4 (Homo sapiens (Human), UniProt P31391). The assay is described as follows: Competitive radioligand binding, 125I-Tyr-SRIF 14, membrane preparations. The note with it: competitive binding vs 125I-Tyr-SRIF 14, human SSTR4 membranes; read-out: SST4. The method, then:
Respective membrane receptor preparations were prepared in assay buffer (25 mM HEPES, 10 mM MgCl2, 1 mM CaCl2, 0.5% BSA, pH=7.4) at a 1:150 dilution. […] Binding assays were performed in triplicate for each concentration of ligand in a total volume of 200 μL radioligand (25 μL ligand, 25 μL radioligand, 150 μL receptors) and incubated at room temperature for 90 minutes using a shaking table. Binding was terminated by filtration through GF/B glass fiber filters that were presoaked in 0.5% polyethyleneimine for a minimum of 4 hours. Filters were washed 9× with 1000 μL ice cold wash buffer (50 mM Tris-HCl, pH=7.4, 0.2% BSA). Filters were scored, transferred into plastic test tubes and counted in a gamma counter (Wizard2, Perkin-Elmer). Determination of the Ki for each compound was performed using non-linear regression with GraphPad PRISM-5 software (GraphPad Software, Inc., La Jolla, Calif.).

Assay [2] has as its target CHO-K1 cells expressing human somatostatin SSTR4 (Homo sapiens (Human), UniProt P31391). The experiment in a line: Inhibition of forskolin stimulated cAMP, TR-FRET LANCE assay. It counts as cell-based. The note with it: against 5 μM forskolin. The method, then:
Measurement of forskolin stimulated inhibition of cAMP was performed via time-resolved fluorescence resonance energy transfer (TR-FRET) LANCE assay (AD0262, PerkinElmer Life Science, Inc., Boston Mass.). […] LANCE cAMP assay was performed per manufacture instruction with assessment of respective compound, somatostatin-28 (Sigma-Aldrich Co., St. Louis, Mo.) as control agonist, against 5 μM forskolin, performed in triplicate across concentration curve. […] Data was calculated via GraphPad PRISM-5 software.

For `Clc1cccc(Cc2nnc(CCc3c[nH]c4ccccc34)n2CCCc2c[nH]cn2)c1` [BN-VI-56, 3-(2-(4-(3-(1H-Imidazol-4-yl)propyl)-5-(3-chlorobenzyl)-4H-1,2,4-triazol-3-yl)ethyl)-1H-indole], the Ki in assay [1] was 5.09 nM and 7.77 nM. In assay [2], the midpoint of the response, the EC50, lay at 7.26 nM. As for `c1ccc(COc2cccc(Cc3nnc(CCc4c[nH]c5ccccc45)n3CCCc3c[nH]cn3)c2)cc1` [MM-I-53, 3-(2-(4-(3-(1H-imidazol-4-yl)propyl)-5-(3-(benzyloxy)benzyl)-4H-1,2,4-triazol-3-yl)-ethyl)-1H-indole], the Ki in assay [1] worked out at 387 nM. This compound came in with an EC50 in assay [2] of 254 nM. As to `FC(F)(F)Oc1cccc(Cc2nnc(CCc3c[nH]c4ccccc34)n2CCCc2c[nH]cn2)c1` [MM-I-36, 3-(2-(4-(3-(1H-imidazol-4-yl)propyl)-5-(3-(trifluoromethoxy)benzyl)-4H-1,2,4-triazol-3-yl)ethyl)-1H-indole], the Ki in assay [1] was determined as 14.9 nM. Also, in assay [2], the EC50 worked out at 55 nM. On the same counts, the results for `Fc1cc(F)cc(Cc2nnc(CCc3c[nH]c4ccccc34)n2CCCc2c[nH]cn2)c1` [SM-I-55, 3-(2-(4-(3-(1H-Imidazol-4-yl)propyl)-5-(3,5-difluorobenzyl)-4H-1,2,4-triazol-3-yl)ethyl)-1H-indole] are 16.2 nM and 8.81 nM. On the same counts, the results for `COc1ccc(Cc2nnc(Cc3c[nH]c4ccc(OC)cc34)n2CCCc2c[nH]cn2)cc1` [SK-I-56, 3-((4-(3-(1H-imidazol-4-yl)propyl)-5-(4-methoxybenzyl)-4H-1,2,4-triazol-3-yl)methyl)-5-methoxy-1H-indole] are 3.33 nM and 5.63 nM. Regarding `Clc1cc(Cl)cc(Cc2nnc(CCc3c[nH]c4ccccc34)n2CCCc2c[nH]cn2)c1` [BN-VI-89, 3-(2-(4-(3-(1H-Imidazol-4-yl)propyl)-5-(3,5-dichlorobenzyl)-4H-1,2,4-triazol-3-yl)ethyl)-1H-indole], the Ki in assay [1] was 51.7 nM. For the same compound, the concentration giving a half-maximal response (EC50) in assay [2] was found to be 17 nM. The matching figures for `Cn1cc(CCc2nnc(Cc3ccc(Cl)c(Cl)c3)n2CCCc2c[nH]cn2)c2ccccc21` [SM-I-60, 3-(2-(4-(3-(1H-Imidazol-4-yl)propyl)-5-(3,4-dichlorobenzyl)-4H-1,2,4-triazol-3-yl)ethyl)-1-methyl-1H-indole]: 40.4 nM and 21.3 nM. `COc1ccc(Cc2nnc(CCc3c[nH]c4ccccc34)n2CCCc2c[nH]cn2)cc1` [SM-I-29, 3-(2-(4-(3-(1H-Imidazol-4-yl)propyl)-5-(4-methoxybenzyl)-4H-1,2,4-triazol-3-yl)ethyl)-1H-indole]: the Ki in assay [1] was 267 nM.

With `Clc1ccc(Cc2nnc(Cc3c[nH]c4ccccc34)n2CCCc2c[nH]cn2)cc1` [SK-I-22, 3-((4-(3-(1H-imidazol-4-yl)propyl)-5-(4-chlorobenzyl)-4H-1,2,4-triazol-3-yl)methyl)-1H-indole], in assay [1], the Ki amounted to 1.42 nM. In assay [2], this compound had a 50% effective concentration (EC50) of 1.28 nM.

For the compound `Fc1ccc(Cc2nnc(Cc3c[nH]c4ccccc34)n2CCCc2c[nH]cn2)cc1` [SK-I-16, 3-((4-(3-(1H-imidazol-4-yl)propyl)-5-(4-fluorobenzyl)-4H-1,2,4-triazol-3-yl)methyl)-1H-indole], the Ki in assay [1] amounted to 1.72 nM. This compound also registered an EC50 in assay [2] of 1.76 nM.

Regarding `Clc1ccccc1Cc1nnc(CCc2c[nH]c3ccccc23)n1CCCc1c[nH]cn1` [MM-I-17, 3-(2-(4-(3-(1H-Imidazol-4-yl)propyl)-5-(2-chlorobenzyl)-4H-1,2,4-triazol-3-yl)ethyl)-1H-indole], the Ki in assay [1] was found to be 21.5 nM. In assay [2], this compound yielded an EC50 of 17.3 nM.

On to `FC(F)(F)c1cccc(Cc2nnc(Cc3c[nH]c4ccccc34)n2CCCc2c[nH]cn2)c1` [MM-I-66, 3-((4-(3-(1H-imidazol-4-yl)propyl)-5-(3-(trifluoromethyl)benzyl)-4H-1,2,4-triazol-3-yl)methyl)-1H-indole], for which the Ki in assay [1] was 0.825 nM and 0.838 nM. For the same compound, in assay [2], the EC50 turned out to be 0.585 nM.

Regarding `Fc1cccc(Cc2nnc(CCc3c[nH]c4ccccc34)n2CCCc2c[nH]cn2)c1` [SM-I-38, 3-(2-(4-(3-(1H-Imidazol-4-yl)propyl)-5-(3-fluorobenzyl)-4H-1,2,4-triazol-3-yl)ethyl)-1H-indole], the Ki in assay [1] is 12.4 nM. It took 21 nM to reach a half-maximal effect in assay [2] (EC50). On the same counts, the results for `Fc1ccc2c(Cc3nnc(Cc4ccccc4)n3CCCc3c[nH]cn3)c[nH]c2c1` [MM-I-89, 3-((4-(3-(1H-imidazol-4-yl)propyl)-5-benzyl-4H-1,2,4-triazol-3-yl)methyl)-6-fluoro-1H-indole] are 2.97 nM and 2.8 nM. On the same counts, the results for `Fc1ccc2c(Cc3nnc(Cc4cccc(Br)c4)n3CCCc3c[nH]cn3)c[nH]c2c1` [MM-I-83, 3-((4-(3-(1H-imidazol-4-yl)propyl)-5-(3-bromobenzyl)-4H-1,2,4-triazol-3-yl)methyl)-6-fluoro-1H-indole] are 1.04 nM and 0.276 nM. `c1ccc(-c2ccc(Cc3nnc(CCc4c[nH]c5ccccc45)n3CCCc3c[nH]cn3)cc2)cc1` [MM-I-26, 3-(2-(4-(3-(1H-Imidazol-4-yl)propyl)-5-([1,1′-biphenyl]-4-ylmethyl)-4H-1,2,4-triazol-3-yl)ethyl)-1H-indole]: the Ki in assay [1] was found to be 945 nM.

As for `COc1ccc2[nH]cc(Cc3nnc(Cc4ccccc4)n3CCCc3c[nH]cn3)c2c1` [SK-I-53, 3-((4-(3-(1H-imidazol-4-yl)propyl)-5-benzyl-4H-1,2,4-triazol-3-yl)methyl)-5-methoxy-1H-indole], the Ki in assay [1] was 3.11 nM. In addition, the EC50 in assay [2] was determined as 5.97 nM.

For the compound `COc1ccc(Cc2nnc(Cc3c[nH]c4ccccc34)n2CCCc2c[nH]cn2)cc1` [SK-I-23, 3-((4-(3-(1H-imidazol-4-yl)propyl)-5-(4-methoxybenzyl)-4H-1,2,4-triazol-3-yl)methyl)-1H-indole], in assay [1], the Ki was 2.22 nM. The compound also yielded an EC50 in assay [2] of 7.27 nM. On the same counts, the results for `Cn1cc(CCc2nnc(Cc3cccc(C(F)(F)F)c3)n2CCCc2c[nH]cn2)c2ccccc21` [SM-I-76, 3-(2-(4-(3-(1H-imidazol-4-yl)propyl)-5-(3-(trifluoromethyl)benzyl)-4H-1,2,4-triazol-3-yl)ethyl)-1-methyl-1H-indole] are 11 nM and 10.7 nM. The matching figures for `COc1ccc2[nH]cc(Cc3nnc(Cc4cccc(C(F)(F)F)c4)n3CCCc3c[nH]cn3)c2c1` [SK-I-57, 3-((4-(3-(1H-imidazol-4-yl)propyl)-5-(3-(trifluoromethyl)benzyl)-4H-1,2,4-triazol-3-yl)methyl)-5-methoxy-1H-indole]: 1.76 nM and 1 nM. The matching figures for `Fc1ccc(Cc2nnc(Cc3c[nH]c4cc(F)ccc34)n2CCCc2c[nH]cn2)cc1` [SK-I-91, 3-((4-(3-(1H-imidazol-4-yl)propyl)-5-(4-fluorobenzyl)-4H-1,2,4-triazol-3-yl)methyl)-6-fluoro-1H-indole]: 0.902 nM and 3.17 nM. Turning to `Clc1ccc(Cc2nnc(CCc3c[nH]c4ccccc34)n2CCCc2c[nH]cn2)cc1` [BN-VI-62, 3-(2-(4-(3-(1H-Imidazol-4-yl)propyl)-5-(4-chlorobenzyl)-4H-1,2,4-triazol-3-yl)ethyl)-1H-indole], the Ki in assay [1] was 47.3 nM and 37.5 nM. This compound yielded an EC50 in assay [2] of 19.3 nM. Regarding `Fc1ccc2c(Cc3nnc(Cc4cccc(C(F)(F)F)c4)n3CCCc3c[nH]cn3)c[nH]c2c1` [MM-I-87, 3-((4-(3-(1H-imidazol-4-yl)propyl)-5-(3-(trifluoromethyl)benzyl)-4H-1,2,4-triazol-3-yl)methyl)-6-fluoro-1H-indole], the Ki in assay [1] worked out at 0.673 nM. This compound came in with an EC50 in assay [2] of 0.249 nM.

With `CS(=O)(=O)c1cccc(Cc2nnc(Cc3c[nH]c4ccccc34)n2CCCc2c[nH]cn2)c1` [MM-I-72, 3-((4-(3-(1H-imidazol-4-yl)propyl)-5-(3-(methylsulfonyl)benzyl)-4H-1,2,4-triazol-3-yl)methyl)-1H-indole], in assay [1], the Ki was determined as 1.02 nM. Moreover, the EC50 in assay [2] was 3.32 nM. The matching figures for `Fc1ccc2c(Cc3nnc(Cc4c[nH]c5cc(F)ccc45)n3CCCc3c[nH]cn3)c[nH]c2c1` [SK-I-124, 3,3′-((4-(3-(1H-imidazol-4-yl)propyl)-4H-1,2,4-triazol-3,5-diyl)bis(methylene))bis(6-fluoro-1H-indole)]: 0.707 nM and 0.725 nM. The matching figures for `CC(C)(C)Cc1nnc(Cc2c[nH]c3cc(F)ccc23)n1CCCc1c[nH]cn1` [SK-I-119, 3-((4-(3-(1H-imidazol-4-yl)propyl)-5-neopentyl-4H-1,2,4-triazol-3-yl)methyl)-6-fluoro-1H-indole]: 57 nM and 77.7 nM. The matching figures for `N[C@H](Cc1c[nH]c2ccccc12)c1nnc(Cc2cccc(Cl)c2)n1CCCc1c[nH]cn1` [BN-VI-87, (R)-1-(4-(3-(1H-Imidazol-4-yl)propyl)-5-(3-chlorobenzyl)-4H-1,2,4-triazol-3-yl)-2-(1H-indol-3-yl)ethanamine]: 448 nM and 692 nM. In the case of `COc1ccccc1Cc1nnc(CCc2c[nH]c3ccccc23)n1CCCc1c[nH]cn1` [MM-I-21, 3-(2-(4-(3-(1H-Imidazol-4-yl)propyl)-5-(2-methoxybenzyl)-4H-1,2,4-triazol-3-yl)ethyl)-1H-indole], the Ki in assay [1] was determined as 39.5 nM. The compound also gave an EC50 in assay [2] of 28.9 nM.

Source of the values: US11136312B2, “3,4,5-trisubstituted-1,2,4-triazoles and 3,4,5-trisubstituted-3-thio-1,2,4-triazoles and uses thereof” (Board of Trustees of Southern Illinois University, priority 2017, dated 2021).
